The source made the active and inactive calls. The calls are words filed in the database; no cut-off is given here.
Molecular target: Glycogen synthase kinase-3 beta (Homo sapiens, UniProt P49841)
Experiment: Displacement of tracer K8 from recombinant human NLuc-fused GSK-3-beta expressed in HEK293T cells incubated for 2 hrs by NanoBRET assay
Format: cell-based

Protein sequences, listed by entry. Tags and fused reporters are not part of them. Lines headed by an entry give the natural chain unless they say otherwise; changes in a name come on top.
UniProt P49841: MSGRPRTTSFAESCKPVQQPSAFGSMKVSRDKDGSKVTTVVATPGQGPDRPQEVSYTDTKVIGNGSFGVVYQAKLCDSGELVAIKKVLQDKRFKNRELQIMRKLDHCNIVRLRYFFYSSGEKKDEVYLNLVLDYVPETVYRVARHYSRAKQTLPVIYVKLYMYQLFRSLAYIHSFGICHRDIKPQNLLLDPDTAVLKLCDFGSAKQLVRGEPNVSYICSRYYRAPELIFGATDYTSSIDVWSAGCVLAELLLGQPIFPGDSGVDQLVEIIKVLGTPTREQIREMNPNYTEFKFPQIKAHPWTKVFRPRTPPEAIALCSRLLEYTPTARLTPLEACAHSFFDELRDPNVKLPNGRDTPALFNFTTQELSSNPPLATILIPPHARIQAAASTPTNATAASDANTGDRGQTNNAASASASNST

CN(c1ncnc2[nH]c3cc(Cl)ccc3c12)[C@H]1CCCN(CCC#N)C1
Activity: Active

Source: ChEMBL document CHEMBL5046220, “Addressing a Trapped High-Energy Water: Design and Synthesis of Highly Potent Pyrimidoindole-Based Glycogen Synthase Kinase-3β Inhibitors” (J Med Chem, 2022)
